Data on 1 compound can be found in ChEMBL document CHEMBL3588780, “Quinolyl analogues of norlobelane: novel potent inhibitors of [(3)H]dihydrotetrabenazine binding and [(3)H]dopamine uptake at the vesicular monoamine transporter-2” (Bioorg Med Chem Lett, 2015).

By UniProt entry, the sequences of proteins in these tests, tags left out.
UniProt Q01827, whole entry: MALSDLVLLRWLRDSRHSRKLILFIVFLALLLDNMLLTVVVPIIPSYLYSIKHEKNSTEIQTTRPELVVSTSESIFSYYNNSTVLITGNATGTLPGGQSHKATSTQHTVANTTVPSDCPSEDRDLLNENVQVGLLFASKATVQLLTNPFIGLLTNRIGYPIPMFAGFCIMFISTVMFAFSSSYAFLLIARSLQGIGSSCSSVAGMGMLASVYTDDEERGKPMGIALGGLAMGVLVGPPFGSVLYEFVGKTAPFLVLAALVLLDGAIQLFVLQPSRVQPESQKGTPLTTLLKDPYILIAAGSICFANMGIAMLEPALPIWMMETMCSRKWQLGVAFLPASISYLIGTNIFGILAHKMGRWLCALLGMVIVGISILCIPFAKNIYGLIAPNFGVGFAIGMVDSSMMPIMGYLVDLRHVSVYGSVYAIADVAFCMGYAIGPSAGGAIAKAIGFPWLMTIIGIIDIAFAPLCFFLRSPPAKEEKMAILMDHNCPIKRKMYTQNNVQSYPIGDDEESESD

For experiment [1], the target named is Synaptic vesicular amine transporter (Rattus norvegicus) (UniProt Q01827). Nature of the experiment: Displacement of [3H]DTBZ from VMAT2 in rat whole brain relative to quinlobelane. In general terms: Displacement assays read how much labelled ligand stays bound in the presence of the test substance.
For experiment [2] the target is unchanged. Nature of the experiment: Ratio of Ki for displacement of [3H]DTBZ from VMAT2 in rat whole brain to Ki for inhibition of VMAT2-mediated [3H]DA uptake in rat brain synaptic vesicles. Type of experiment: tissue-based.

For the compound `c1ccc2c(CC[C@H]3CCC[C@@H](CCc4ccnc5ccccc45)N3)ccnc2c1`, the Ratio Ki in experiment [1] is 15; in experiment [2] it was 3.
